The results in this text go back to patent US9181172B2, “Rhein conjugates, preparation method thereof and their uses in producing medicines for treating diabetic nephrosis, intestinal adhesion and osteoarthritis” (priority 2005, dated 2015).

A short description of the series: Comparison of metal salts or conjugates hydro-acupuncture (water-carrier) preparation: pH value and clarity. The conditions noted are these: 2.0 mg/ml in water, as dissolved. In kind it is physicochemical. The method, then: Proper amount of different rhein or rhein-containing effective part metal salts or conjugates were put into a 10 ml volumetric flask, added with water, shaken and dissolved for constant volume, and then a water-carrier preparation was obtained. Rhein or rhein-containing effective part sodium salts or sylvan preparation are adjusted to the original pH with diluted hydrochloric acid and the results were shown in Table 4.

For the substance Rhein Arginine Conjugate, the PH value is listed as 6-7 and the clarity result is “clear”.
